From ChEMBL document CHEMBL5523753, “Structure-Based Design and Discovery of a Potent and Cell-Active LC3A/B Covalent Inhibitor” (J Med Chem, 2024) come the findings set out here.

Amino acid sequences for entries named in this document (tags omitted). A change or cut given only in a name is not applied to a line headed by its entry.
UniProt Q9BXW4: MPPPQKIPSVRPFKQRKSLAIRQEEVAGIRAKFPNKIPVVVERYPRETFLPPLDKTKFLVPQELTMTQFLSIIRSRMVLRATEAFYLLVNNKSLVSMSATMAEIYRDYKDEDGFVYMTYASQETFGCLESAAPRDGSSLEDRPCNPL

This experiment addresses Microtubule-associated protein 1 light chain 3 gamma/Sequestosome-1 (Homo sapiens) (UniProt Q13501+Q9BXW4). The experiment in a line: Disruption of LC3C/P62 protein-protein interaction in HEK293 cells at 0.5 to 5 uM measured for 24 hrs by co-immunoprecipitation analysis. Particulars: dose 0.5-5 µM. It counts as cell-based.

SMILES strings stand for the structures. Activity calls are given as the source filed them. No cut-off for these calls is given here.

As for `CN(C)CCNC=C1C(=O)CC(c2c(Cl)c(Cl)cc3[nH]ccc23)CC1=O` (stereo unspecified), the outcome was inactive.
